# Water solubility values, as collected for the OPERA models

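These are experimental values that the OPERA curators gathered from public databases to train and test their QSAR models. The files give a single number for a compound and property, which may rest on several reports. How each value was measured is not recorded, so precision varies. A value may pool stereoisomers or salt forms, and the file does not say which form was measured. Some entries may be limits or estimates that an upstream database listed as plain numbers.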

Solubility in water is on a log10 molar scale (set defined at 25 °C).

| SMILES | log S (log10 mol/L) |
|---|---|
| C=C1CCOC(C=C(C)C)C1 (stereo not drawn) | -2.51 |
| C=C(C)C(=O)OCCOc1ccccc1 | -2.953 |
| CC(=O)OC1CCCCC1C (stereo not drawn) | -2.55 |
| Cc1ccc2c(c1)[C@H](N)[C@@H](C)C2 | -1.716 |
| Brc1ccc(Br)c2ccccc12 | -5.36 |
| COc1ccccc1NC(=O)c1cc2ccccc2c(N=Nc2cc(Cl)ccc2Cl)c1O | -8.465 |
| CCNC(=O)OCC | 0.555 |
| CCCC/C=C\CCCCCCCCO | -4.971 |
| CC(C)C1CCC(CO)CC1 (stereo not drawn) | -2.864 |
| CC1=CC(C)C(CO)C(C)C1 (stereo not drawn) | -2.371 |
| CCc1cccc(C)c1Nc1ccc(Nc2c(C)cccc2CC)c2c1C(=O)c1ccccc1C2=O | -7.375 |
| Cc1nc2c(=O)n(C)c(=O)n(C)c2n1C | -2.142 |
| C=CC(=O)OCC(C)CC (stereo not drawn) | -2.653 |
| Cc1cnns1 | 0.096 |
| N[C@@H](Cc1cc(I)c(Oc2ccc(O)cc2)c(I)c1)C(=O)O | -4.416 |
| CC(C)CNC[C@@H](O)[C@H](Cc1ccccc1)NC(=O)OC(C)(C)C | -3.466 |
| CC(C)Sc1ncccc1CCC(F)(F)F | -3.414 |
| C=CC(=O)OCCC(C)CCOC(=O)C=C | -2.621 |
| CCCCCCCCC(=O)OCC(C)OC(=O)CCCCCCCC (stereo not drawn) | -5.853 |
| CCC(O)c1ccccc1 (stereo not drawn) | -2.34 |
| CCOC(=O)C(CC)C(=O)OCC | -1.77 |
| CC1=CCC(C(C)CC2CCCC2=O)CC1 (stereo not drawn) | -4.68 |
| COC(=O)c1ccccc1N=NC(C)Cc1ccc(C(C)(C)C)cc1 (stereo not drawn) | -5.547 |
| CC(C)COCC(CN(Cc1ccccc1)c1ccccc1)N1CCCC1 (stereo not drawn) | -4.748 |
| CC(=O)OC1CCC2C3CCc4cc(O)ccc4C3CCC12C (stereo not drawn) | -6.321 |
| CC(C)CCCCCCCCCCOC(=O)CCCCC(=O)OCCCCCCCCCCC(C)C | -5.659 |
| COc1cc(N=Nc2ccc([N+](=O)[O-])cc2)ccc1N=Nc1ccc(O)cc1 | -6.964 |
| CC(C)(C)c1cc(O)ccc1O | -1.84 |
| CC(C)OC(=S)SSC(=S)OC(C)C | -7.606 |
| O=C(N/N=C/C=C/c1ccc([N+](=O)[O-])o1)C(Cl)Cl | -4.164 |
| CS(=O)(=O)c1c(F)c(F)c(F)c(F)c1F | -1.939 |
| COc1cc([N+](=O)[O-])c(OC)cc1Cl | -3.179 |
| CCOC(=O)COC(=O)c1ccccc1C(=O)OCC | -2.606 |
| CC(C)(c1ccccc1)c1ccc(OS(=O)(=O)c2cc([N+]#N)c([O-])c3ccccc23)cc1 | -7.347 |
| OC1CO[C@@H](O)C(O)C1O (stereo in doubt) | 0.39 |
| CC[N+](CC)(CC(=O)Nc1c(C)cccc1C)Cc1ccccc1.O=C([O-])c1ccccc1 | -1.02 |
| C1CC1 | -2.043 |
| C=CC(=O)NC(C)C | 0.273 |
| CCC(=O)Nc1c(I)c(NC(=O)CC)c(I)c(C(=O)O)c1I | -2.81 |
| CCCCOC(=O)C(C)OC(=O)CCC (stereo not drawn) | -2.888 |
| CC1(C)OC(=O)CC1C(=O)O (stereo not drawn) | -1.24 |
| CC[C@H]1OC(=O)C[C@@H](O)[C@H](C)[C@@H](O[C@@H]2O[C@H](C)[C@@H](O[C@H]3C[C@@](C)(O)[C@@H](O)[C@H](C)O3)[C@H](N(C)C)[C@H]2O)[C@@H](CC=O)C[C@@H](C)C(=O)C=CC(C)=C[C@@H]1CO[C@@H]1O[C@H](C)[C@@H](O)[C@@H](OC)[C@H]1OC | -3.76 |
| CN(C)CCCNCCC#N | 0.776 |
| C=CCCc1ccc(-c2ccc(-c3ccc(CC)cc3)cc2F)cc1 | -7.82 |
| CCCCCCCC/C=C\CCCCCCCC(=O)OCC(O)COC(=O)[C@@H]1CCC(=O)N1 (stereo partly drawn) | -7.937 |
| O=C1OC(=O)C2CC=CCC12 (stereo not drawn) | -1.182 |
| CCCCOC(CC)OC(C)COC(O)CC (stereo not drawn) | -0.804 |

The last 7 entries again:

| SMILES | log S (log10 mol/L) |
|---|---|
| CC1(C)OC(=O)CC1C(=O)O (stereo not drawn) | -1.24 |
| CC[C@H]1OC(=O)C[C@@H](O)[C@H](C)[C@@H](O[C@@H]2O[C@H](C)[C@@H](O[C@H]3C[C@@](C)(O)[C@@H](O)[C@H](C)O3)[C@H](N(C)C)[C@H]2O)[C@@H](CC=O)C[C@@H](C)C(=O)C=CC(C)=C[C@@H]1CO[C@@H]1O[C@H](C)[C@@H](O)[C@@H](OC)[C@H]1OC | -3.76 |
| CN(C)CCCNCCC#N | 0.776 |
| C=CCCc1ccc(-c2ccc(-c3ccc(CC)cc3)cc2F)cc1 | -7.82 |
| CCCCCCCC/C=C\CCCCCCCC(=O)OCC(O)COC(=O)[C@@H]1CCC(=O)N1 (stereo partly drawn) | -7.937 |
| O=C1OC(=O)C2CC=CCC12 (stereo not drawn) | -1.182 |
| CCCCOC(CC)OC(C)COC(O)CC (stereo not drawn) | -0.804 |

Source: data files of OPERA 2.9 (Mansouri et al.), github.com/kmansouri/OPERA.